Apparent affinities of Ab-14 variants for a coronavirus HR2 peptide

The target is the same throughout: PDVDLGDISGINAS, from the HR2 region of SARS-CoV-2 spike.

Parent scFv Ab-14: VH joined to VL by the linker GGGGSGGGGSGGGGS. Changes lie in the heavy chain CDRs alone.
VH: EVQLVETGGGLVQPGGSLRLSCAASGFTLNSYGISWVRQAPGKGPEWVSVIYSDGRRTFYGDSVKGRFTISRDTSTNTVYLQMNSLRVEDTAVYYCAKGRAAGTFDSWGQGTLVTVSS
VL: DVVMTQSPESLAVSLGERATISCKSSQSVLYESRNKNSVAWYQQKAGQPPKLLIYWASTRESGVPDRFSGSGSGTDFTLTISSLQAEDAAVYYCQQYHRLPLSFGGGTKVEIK

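This is the validation round: designs drawn from the data on random variants, tested in the same kind of assay. Several design methods are mixed in this list. The assay is AlphaSeq: two haploid yeast populations carry antibody and antigen on their surface. After mating in shaken culture at 30 °C for 16 h, diploids were selected and their barcode pairs sequenced. Each replicate has its own calibration line, from reference interactions of the BCL2 family. There are six technical replicates.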

The parent's heavy chain CDRs are GFTLNSYGIS, VIYSDGRRTFYGDSVK, GRAAGTFDS; each variant's own CDRs replace them letter for letter. Affinities are written as log10 Kd with Kd in nM; a lower number is a better binder. The mean shown is taken over the replicates in which the pair was detected. Where no diploid with the target was found in that replicate, the entry reads "n.d.": below detection, most likely a poor binder, though not proof of it. The authors' rule: three or more of the six replicates give a measured affinity, fewer mean a poor binder. Empty control strains, which show no peptide, gave a signal in 1% of pairings with all heavy chain designs; the median was 2.08 and 95% of these signals were weaker than 0.84. No background was subtracted. The range of this assay differs from that of the first round, and the authors advise against merging the two.

log10 Kd (nM) by replicate	mean, log10 nM	CDR-H1	CDR-H2	CDR-H3
1.22 / 0.35 / 1.93 / 1.29 / 0.61 / 0.55	0.99	GFTLNDYGIS	VIYSDGRRTFYGDSVK	GQAAGTFDK
1.26 / 0.81 / 0.72 / 1.29 / 1.22 / 1.22	1.09	GEDLNSYGIS	VIYSDGRRTFYADSVK	GRNAGTFDS
0.71 / 1.26 / 1.01 / 0.70 / 0.78 / 0.76	0.87	GFNLNSYGIS	VIYSDGRRTFYDDSVK	GRAAGTFDS
1.08 / 0.92 / 0.34 / 0.56 / 0.72 / 0.80	0.74	GFSLNSYGIS	VIYSDGRRTFYGDSVK	GQAAGTFDA
0.46 / 1.70 / n.d. / 1.62 / 0.32 / 1.23	1.07	GFQLNSYGIS	VIYSDGRRTFYGDSVK	GQTAGTFDL
n.d. / n.d. / 1.48 / n.d. / n.d. / 1.07	1.28	GFTLNQYGIS	VIYSDGQRTFYSDSVK	GRAAGTFTS
-0.23 / -0.65 / -0.80 / -0.97 / -0.50 / -0.41	-0.59	GFDLNEYGIS	VIYADGMRTAYIDSVK	GEVAGTFDS
0.13 / 0.02 / 0.12 / -0.20 / -0.19 / 0.19	0.01	GFTLDEYGIS	VIYADGRRTFYSDSVK	GGNAGTFDV
-0.40 / 0.30 / -0.10 / -0.32 / -0.36 / -0.32	-0.20	GFDLNEYGIS	VIYADGMRTAYVDDVK	GNVAGTFDL
n.d. / n.d. / n.d. / n.d. / n.d. / n.d.	n.d.	GFTLNSYGIS	VIYSDGRRTFYDDEVK	GRAKQTFDS
-0.41 / -0.23 / -0.24 / -0.77 / -0.39 / -0.36	-0.40	GFDLNEYGIS	VIYADGMRTAYADNVK	GQVAGTFDI
n.d. / n.d. / n.d. / n.d. / n.d. / n.d.	n.d.	GFTLNSYGIS	VIYSDGRRTFYGDSVK	GRAAGTFSD
0.28 / -0.05 / -0.25 / -0.50 / -0.40 / -0.05	-0.16	GFNLDEYGIS	VIYADGRRTFYQDSVK	GEGAGTFDI
-0.33 / -0.19 / -0.51 / -0.77 / -0.56 / -0.38	-0.46	GFDLNEYGIS	VIYADGQRTAYADSVK	GEVAGTFDQ
0.23 / -0.28 / 0.11 / 0.15 / 0.66 / 0.67	0.26	GFPLNDYGIS	VIYSDGRRTFYADSVK	GRTAGTFDS
0.63 / -0.33 / 0.25 / 0.26 / -0.41 / -0.03	0.06	GFDLNEYGIS	VIYADGSRTFYADSVK	GEEAGTFDQ
n.d. / n.d. / n.d. / n.d. / n.d. / n.d.	n.d.	GFTLNSYGIS	VIYSDGRRTFYLDAVK	GRAAQTFWS
2.16 / n.d. / n.d. / n.d. / n.d. / n.d.	2.16	GFTLNSYGIS	VIYSDGRRTQYQDSVK	GRAAGTFDS
-0.79 / -0.46 / -0.85 / -0.71 / -0.87 / -0.42	-0.68	GFDLNEYGIS	VIYADGMRTFYTDSVK	GNNAGTFDV
1.06 / 0.90 / 0.81 / 0.89 / 1.59 / 1.21	1.08	GFGLNDYGIS	VIYSDGRRTFYIDSVK	GRLAGTFDS
0.31 / 0.25 / 0.17 / 0.04 / 0.19 / 0.01	0.16	GFTLNSYGIS	VIYSDGRRTFYTDSVK	GDEAGTFDS
0.84 / 1.29 / 1.44 / 0.80 / 1.69 / 2.56	1.44	GFSLNSYGIS	VIYSDGRRTFYGDSVK	GWQAGTFDS
n.d. / n.d. / n.d. / n.d. / n.d. / n.d.	n.d.	GFDLLEYGIS	VIYADGMRVAYAKDVK	GMFGEFTVD
n.d. / n.d. / n.d. / n.d. / n.d. / n.d.	n.d.	GKHLDEYGIS	VIYADGQRVFYSNTVK	GIQGFNVDV
0.85 / 0.44 / 0.31 / -0.11 / 0.48 / 0.67	0.44	GFDLEDYGIS	VIYADGMRTAYADSVK	GETAGTFDL
-0.55 / -0.34 / -0.74 / -0.75 / -0.53 / -0.31	-0.54	GFDLNEYGIS	VIYADGRRTAYDDSVK	GQVAGTFDF
0.41 / -0.20 / n.d. / 1.25 / 0.40 / n.d.	0.47	GFHLNDYGIS	VIYSDGRRTFYIDSVK	GREAGTFDS
n.d. / n.d. / n.d. / n.d. / n.d. / n.d.	n.d.	GFTLDSYGIS	VIYSDGRRTFYADSVK	GRQAGTFHS
n.d. / n.d. / 2.45 / n.d. / n.d. / 2.33	2.39	GFTLDSYGIS	VIYSDGRRTFYGDSVK	GRASGTFDS
n.d. / n.d. / n.d. / n.d. / n.d. / n.d.	n.d.	GFQLNQYGIS	VIYSDGRRTFYSDSVK	GRAAGHFDS
-0.10 / -0.51 / -0.10 / -0.24 / 1.22 / -0.19	0.01	GFDLEDYGIS	VIYADGMRTAYADSVK	GNVAGTFDL
n.d. / n.d. / n.d. / n.d. / n.d. / n.d.	n.d.	GFNLNQYGIS	VIYSDGRRTMYGDSVK	GRAAVTFDS
n.d. / n.d. / n.d. / n.d. / n.d. / n.d.	n.d.	GVNLDEYGIS	VIYADGVRSHYADSVK	GMHGDFGVV
0.30 / 0.14 / -0.08 / 0.06 / 0.04 / 0.09	0.09	GFDLNSYGIS	VIYSDGRRTFYADDVK	GREAGTFDS
-0.49 / -0.69 / -0.50 / -0.70 / -0.46 / -0.44	-0.55	GFDLNEYGIS	VIYADGRRTFYADSVK	GQIAGTFDI
n.d. / n.d. / n.d. / n.d. / n.d. / n.d.	n.d.	GFNIDEYGIS	VIYADGDRMSYDNAVK	GQISGHFDM
n.d. / n.d. / n.d. / n.d. / n.d. / n.d.	n.d.	GFTLNSYGIS	VIYSDGRRTFYGDSVK	GRASGHFDS
0.05 / 0.33 / 0.25 / -0.24 / -0.40 / 0.47	0.08	GFSLNEYGIS	VIYSDGRRTFYGDDVK	GRTAGTFDS
1.52 / 0.69 / 1.20 / 1.17 / 0.53 / 0.75	0.98	GFELNSYGIS	VIYSDGRRTFYGDSVK	GKLAGTFDS
-0.09 / -0.37 / -0.11 / -0.44 / 0.39 / -0.52	-0.19	KFDLNSYGIS	VIYSDGRRTFYSDSVK	GKTAGTFDS

Repeated from above, the 5 best binders with a signal in all replicates:

| CDR-H1 | CDR-H2 | CDR-H3 | log10 Kd (nM) by replicate | mean, log10 nM |
|---|---|---|---|---|
| GFDLNEYGIS | VIYADGMRTFYTDSVK | GNNAGTFDV | -0.79 / -0.46 / -0.85 / -0.71 / -0.87 / -0.42 | -0.68 |
| GFDLNEYGIS | VIYADGMRTAYIDSVK | GEVAGTFDS | -0.23 / -0.65 / -0.80 / -0.97 / -0.50 / -0.41 | -0.59 |
| GFDLNEYGIS | VIYADGRRTFYADSVK | GQIAGTFDI | -0.49 / -0.69 / -0.50 / -0.70 / -0.46 / -0.44 | -0.55 |
| GFDLNEYGIS | VIYADGRRTAYDDSVK | GQVAGTFDF | -0.55 / -0.34 / -0.74 / -0.75 / -0.53 / -0.31 | -0.54 |
| GFDLNEYGIS | VIYADGQRTAYADSVK | GEVAGTFDQ | -0.33 / -0.19 / -0.51 / -0.77 / -0.56 / -0.38 | -0.46 |

Data: MIT Lincoln Laboratory AlphaSeq set, Li et al. 2023, doi:10.1038/s41467-023-39022-2, as distributed in FLAb.